{"sequences": {"note": "Protein sequences, listed by entry. Tags and fused reporters are not part of them.", "UniProt Q9HCT0, whole entry": "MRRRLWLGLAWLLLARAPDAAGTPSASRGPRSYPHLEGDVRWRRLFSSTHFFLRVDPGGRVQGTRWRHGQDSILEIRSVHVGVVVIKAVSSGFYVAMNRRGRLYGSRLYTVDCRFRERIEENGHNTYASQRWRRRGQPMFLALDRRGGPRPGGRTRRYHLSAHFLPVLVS"}, "source": "PubChem BioAssay AID651658", "about": "(Broad Institute, 2012)", "note": "Only a part is listed here, and it is no random draw. Active and inactive are the calls of the source.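 How the source made its calls: active means mean Tm shift, scaled 0 neutral to 100 positive control, at about 1.3% or above, every replicate too (limit read from the data); inconclusive means no clear call, values can overlap the other calls; inactive means the rest.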", "data": [{"molecular_target": "Fibroblast growth factor 22 (Homo sapiens) (UniProt Q9HCT0)", "assay": "binders of human FGF22 protein, primary screen, FGF22 synaptogenesis inhibitor project, biophysical, thermal shift, single point (AID 651658)", "settings": "recombinant FGF22 thermal shift, SYPRO orange fluorescence; at 9.99 µM; stronger effect = higher value; percent of sucrose octasulfate shift, DMSO zero", "values": [{"smiles": "CCC(=O)N(c1ccccc1)C1(COC)CCN(CCn2nnn(CC)c2=O)CC1", "activity (Tm shift, normalised)": "inactive: 0.314%"}, {"smiles": "CCC(=O)N(c1ccccc1)C1(COC)CCN(CCc2cccs2)CC1", "activity (Tm shift, normalised)": "inactive: 0.486%"}]}]}
